This note sets out measurements from patent EP4094762A1, “TREATMENT OF NEUROLOGICAL INDICATIONS” (UCL Business Ltd, priority 2021, dated 2022).

By UniProt entry, the sequences of proteins in these tests, tags left out. Where a name states a change or a piece, a line headed by the entry shows the natural chain unless it says otherwise.
UniProt P47900: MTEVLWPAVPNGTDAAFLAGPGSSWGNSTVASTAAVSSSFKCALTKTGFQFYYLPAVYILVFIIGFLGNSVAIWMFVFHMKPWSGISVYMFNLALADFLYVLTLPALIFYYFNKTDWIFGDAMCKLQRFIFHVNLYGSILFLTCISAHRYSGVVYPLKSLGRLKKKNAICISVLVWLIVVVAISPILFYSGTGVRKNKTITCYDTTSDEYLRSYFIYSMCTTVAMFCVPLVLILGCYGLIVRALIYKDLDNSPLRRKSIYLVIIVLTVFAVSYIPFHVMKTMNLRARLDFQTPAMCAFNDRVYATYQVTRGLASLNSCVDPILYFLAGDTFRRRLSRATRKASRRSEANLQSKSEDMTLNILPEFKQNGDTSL

One series concerns the target T1, P2Y1 receptor (Homo sapiens, UniProt P47900).
T1 construct: expressed in transfected cells
In words: Cell based HTRF assay measuring IP1 accumulation; antagonism of the P2Y1 agonist MRS2365. As to conditions: rounded to nearest whole number. As to the method:
IC50 values were determined using a cell based assay in stably transfected cells overexpressing the P2Y1 receptor. The assay system is a high throughput […] assay measuring accumulation of the intracellular messenger inositol monophosphate (IP1), generated intracellularly following activation of P2Y1.
P2Y1 overexpressing cells were maintained in T175 flasks. The day before the assay, these cells were split and 20µl cell suspension transferred to each well of white 384-well assay plates at a cell density of 0.5x10^6 cells/mL. Plates were pulse centrifuged, then incubated overnight at 37°C / 5% CO2 prior to assay.
On day of assay, medium was removed from cells and replaced with stimulation buffer. […] Positive control antagonist curves with standard compounds were included on each plate. Plates were incubated with antagonists for 1 hour prior to addition of 5nM of the agonist MRS2365, dispensed using a Bravo liquid handler. Following agonist addition, plates were incubated for 60 minutes prior to assay. Both incubations were carried out at 37°C / 5% CO2.
For the assay, IP1 accumulation was quantified using the IPOne kit according to manufacturer's instructions. In short, a standard curve was prepared for IP1 quantification, and cells lysed using kit lysis buffer. Assay reagents were added to the lysates, and incubated for 1 hour at room temperature without spinning or shaking. Plates were analysed on a BMG Pherastar plate reader, and IP1 signal generated in cells interpolated from the standard curve.

Series [1] in a line: CNS penetration: intravenous cassette pharmacokinetic study, brain and plasma by LC-MS/MS. As to conditions: mouse.

Turning to `O=C(Nc1ccc(F)cc1F)Nc1cccnc1Oc1ccccc1` [S66], the IC50 on P2Y1 receptor stood at 3170 nM.

As for `COc1ccc(NC(=O)Nc2cccnc2Oc2cccc(C(F)(F)F)c2)cc1` [S60], the IC50 at P2Y1 receptor came to 2410 nM.

The compound `O=C(Nc1ccc(OC(F)(F)F)cc1)Nc1cccnc1Oc1cccc(C(F)(F)F)c1` [S38] yielded a half-maximal inhibitory concentration (IC50) on P2Y1 receptor of 787 nM.

On to `CC(C)c1ccccc1Oc1ncccc1NC(=O)Nc1ccc(C(C)(C)C)cc1` [S2], for which, on P2Y1 receptor, the IC50 stood at 52 nM.

`O=C(Nc1ccc(F)cc1F)Nc1cccnc1Oc1cccc(C(F)(F)F)c1` [S46]: the IC50 at P2Y1 receptor is 1060 nM.

In turn, `CC(C)c1ccccc1Oc1ncccc1NC(=O)Nc1ccc(OC(F)(F)F)cc1` [S5] returned an IC50 on P2Y1 receptor of 65 nM.

`CC(C)(C)c1ccccc1Oc1ncccc1NC(=O)Nc1ccc(OC(F)(F)F)cc1` [2 (BPTU), 1-(2-(2-(tert-butyl)phenoxy)pyridin-3-yl)-3-(4-(trifluoromethoxy)phenyl)urea]: in series [1] (C57B16/J, in vivo, iv, 0.4 mg/kg), the Kp at 2 h was 1.5. Also, in series [1] (intravenous), the “CNS penetration (in words)” value is on record as “exhibit CNS penetration”.
